Article PMC12037410, “Pharmacological targeting of BMAL1 modulates circadian and immune pathways” (Nature Chemical Biology, 2025)
Some compounds may have been tested in ways that are not shown here.

Protein sequences, listed by entry. Tags and fused reporters are not part of them. Residues count along the entry.
UniProt O00327, 338-449 limits assumed: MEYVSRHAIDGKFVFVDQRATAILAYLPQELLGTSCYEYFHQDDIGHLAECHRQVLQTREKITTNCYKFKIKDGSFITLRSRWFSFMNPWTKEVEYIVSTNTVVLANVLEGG

Biological target: BMAL1 (Homo sapiens, UniProt O00327)
Conditions: binder

Compound: O=C1CCN(CCc2ccccc2)CC1
- Bmal1(PASB) dTmB: -0.61 °C
